In PMC4769596 (Biochemical pharmacology, 2014):

What was measured:
[1] = molecular target: μOR-δOR heteromers (μ^βgalOR-δOR cells) (Homo sapiens, UniProt P35372+P41143)
[2] = molecular target: μOR homomers (μ^βgalOR cells) (Homo sapiens, UniProt P35372); type: cell-based

deltorphin II
β-arrestin recruitment to μOR [1]: induces β-arrestin recruitment | β-arrestin recruitment to μOR [2]: but not to μ^βgalOR cells
